Results on one molecule are retold here after US9200045B2, “Small molecule-dependent inteins and uses thereof” (President and Fellows of Harvard College, priority 2011, dated 2015).

A value given as a limit tells only on which side of the number the result lay.

For the assay, the system named is GFP, mCherry, Gli1, and Gli3T. Put plainly: Intein splicing across all four proteins tested in mammalian cells. The following applies: no 4-HT.

B1: 30R3-1: evolved 4-HT-dependent intein (RecA intein with estrogen receptor ligand-binding domain), clone from 30° C. evolution, Round 3 (protein)
chain: CLAEGTRIFDPVTGTTHRIEDVVDGRKPIHVVAAAKDGTLLARPVVSWFDQGTRDVIGLRIAGGATVWATPDHKVLTEYGWRAAGELRKGDRVAGPGGSGNSLALSLTADQMVSALLDAEPPIPYSEYDPTSPFSEASMMGLLTNLADRELVHMINWAKRVPGFVDLTLHDQAHLLECAWLEILMIGLVWRSMEHPGKLLFAPNLLLDRNQGKCVEGMVEIFDMLLATSSRFRMMNLQGEEFVCLKSIILLNSGVYTFLSSTLKSLEEKDHIHRALDKITDTLIHLMAKAGLTLQQQHQRLAQLLLILSHIRHMSNKGMEHLYSMKYKNVVPLYDLLLEMLDAHRLHAGGSGASRVQAFADALDDKFLHDMLAEGLRYSVIREVLPTRRARTFDLEVEELHTLVAEGVVVHNC
On to B1, for which the “background splicing in the absence of 4-HT” value is given as at most 3%.
